From US10112932B2, “Benzoxazepin oxazolidinone compounds and methods of use” (Genentech, Inc., priority 2015, dated 2018)

What was measured:
[1] = system: SW48 (E545K) PI3Kα mutant cells, P-PRAS40; assay: Inhibition of P-PRAS40 in SW48 isogenic cells, helical domain mutant E545K (Example 902); details: Homo sapiens, SW48, 24 h, read-out: P-PRAS40 SW48 (E545K) EC50
[2] = system: CD69 expression in CD19+ CD27− B cells; assay: cells; details: Homo sapiens, B-cell, read-out: B-cell a-IgM CD69 expression IC50, plasma-protein-binding corrected
[3] = system: SW48 (parental) PI3Kα wild-type cells, P-PRAS40; assay: Inhibition of P-PRAS40 in SW48 isogenic cells, PI3Kα wild-type parental (Example 902); details: Homo sapiens, SW48, 24 h, read-out: P-PRAS40 SW48 (parental) EC50
[4] = system: SW48 (H1047R) PI3Kα mutant cells, P-PRAS40; assay: Inhibition of P-PRAS40 in SW48 isogenic cells, kinase domain mutant H1047R (Example 902); details: Homo sapiens, SW48, 24 h, read-out: P-PRAS40 SW48 (H1047R) EC50

SMILES: CS(=O)(=O)N1CCN(Cc2cc3nc(-c4cccc5[nH]ncc45)nc(N4CCOCC4)c3s2)CC1 [pictilisib, 4-(2-(1H-indazol-4-yl)-6-((4-(methylsulfonyl)piperazin-1-yl)methyl)thieno[3,2-d]pyrimidin-4-yl)morpholine, reference compound]
- EC50 [1]: 28.4 nM
- IC50 [2]: 6 nM
- EC50 [3]: 31.5 nM
- EC50 [4]: 32.1 nM
